This is an account of results in ChEMBL document CHEMBL5042476, “Structure-Based Design and Development of Chemical Probes Targeting Putative MOR-CCR5 Heterodimers to Inhibit Opioid Exacerbated HIV-1 Infectivity” (J Med Chem, 2021).

Protein sequences, listed by entry. Tags and fused reporters are not part of them.
UniProt P42866, whole entry: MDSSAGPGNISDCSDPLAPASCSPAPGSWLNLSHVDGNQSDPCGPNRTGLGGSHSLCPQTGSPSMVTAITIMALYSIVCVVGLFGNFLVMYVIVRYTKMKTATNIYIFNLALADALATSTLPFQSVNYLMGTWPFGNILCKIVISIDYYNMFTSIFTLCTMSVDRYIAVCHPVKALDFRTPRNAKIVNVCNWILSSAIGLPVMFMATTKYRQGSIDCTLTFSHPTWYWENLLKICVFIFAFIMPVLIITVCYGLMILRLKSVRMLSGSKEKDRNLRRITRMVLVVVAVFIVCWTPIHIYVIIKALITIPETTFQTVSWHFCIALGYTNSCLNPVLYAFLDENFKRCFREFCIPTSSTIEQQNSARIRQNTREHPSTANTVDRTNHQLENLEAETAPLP

What is called Emax is the size of the effect at its maximum, as opposed to the concentration needed.

This assay deals with Mu-type opioid receptor (Mus musculus) (UniProt P42866). Briefly: Agonist activity at mouse MOR expressed in CHO cell membranes assessed as stimulation of [35S]-GTPgammaS binding measured after 1 hr by scintillation counting analysis relative to DAMGO. Format: functional. Conditions: Cell membrane.

In the case of `CC(C)c1nnc(CCNC(=O)COCC(=O)NCCCCCCCNC(=O)COCC(=O)N[C@@H]2CC[C@@]3(O)[C@H]4Cc5ccc(O)c6c5[C@@]3(CCN4CC3CC3)[C@H]2O6)n1C1C[C@H]2CC[C@@H](C1)N2CC[C@H](NC(=O)C1CCC(F)(F)CC1)c1ccccc1` (stereo partly specified), the Emax is 9.22%.
